Reference: patent publication US20040048900A1, “Nicotine and/or nicotine agonists for the treatment of general anesthetic effects and side effects” (priority 2002, published 2004)

Tested on: female, 129J strain mice
Assay: Hind paw withdrawal latency (HPWL) to radiant heat

## FC(F)OC(Cl)C(F)(F)F (stereo not drawn) [isoflurane]
0.28% isoflurane vs oxygen control, p<0.01
  nociceptive response (HPWL): significantly hyperalgesic
0.56% isoflurane
  nociceptive response (HPWL): HPWL returned to baseline
All mice
  time for HPWL to return to baseline after isoflurane washout: ≤ 1 h
animals
  concentrations that cause hyperalgesia in animals: 0.1-0.38%
Associated with sedation
  isoflurane concentrations at which increased HPWL occurred: above 0.86%
Isoflurane 0.28%, female mice, baseline 9.3±0.7sec.
  HPWL: 6.6 ± 0.6 s
Isoflurane 0.28%, female mice, baseline 9.3±0.7sec., n=14
  maximal reduction of HPWL: 29%
Isoflurane concentrations higher than 0.56%
  nociceptive response (HPWL): progressively increasing analgesia
Saline injected animals, multiple injection paradigm
  isoflurane concentration of maximal hyperalgesia: 0.56%

## C[N+](C)(C)CC[N+]1(C)Cc2c(Cl)c(Cl)c(Cl)c(Cl)c2C1 [chlorisondamine]
Chlorisondamine 10 mg/kg
  nociceptive effect: caused hyperalgesia

## CNC1(C)C2CCC(C2)C1(C)C (stereo not drawn) [mecamylamine]
5 mice
  response to 0.84% isoflurane at 1 or 3 hours after mecamylamine: no significant difference
mecamylamine
  effect on HPWL at higher isoflurane concentrations that caused analgesia: HPWL was not changed
Mecamylamine 2 mg/kg, p<0.01
  effect on hyperalgesia induced by 0.28% isoflurane: enhanced
Mecamylamine 5 mg/kg
  nociceptive effect at baseline: caused hyperalgesia at baseline
Mecamylamine 5 mg/kg and greater IP
  nociceptive response (HPWL): analgesia
Mecamylamine 5 mg/kg with addition of isoflurane 0.28%
  decrease in HPWL: 50%
Mecamylamine 2 and 4 mg/kg IP, p<0.001
  nociceptive response (HPWL): significantly increased nociception
Mecamylamine 7.5 or 10 mg/kg
  behaviour after injection: assumed a hunched posture, made rapid back and forth rocking motions, and aggressively groomed themselves
